pIC50: −log10 of the molar value.

Chains of the proteins cited; added tags and fusions are not shown. Residues count along the entry.
UniProt Q9Y5Z0, 63-518 limits assumed: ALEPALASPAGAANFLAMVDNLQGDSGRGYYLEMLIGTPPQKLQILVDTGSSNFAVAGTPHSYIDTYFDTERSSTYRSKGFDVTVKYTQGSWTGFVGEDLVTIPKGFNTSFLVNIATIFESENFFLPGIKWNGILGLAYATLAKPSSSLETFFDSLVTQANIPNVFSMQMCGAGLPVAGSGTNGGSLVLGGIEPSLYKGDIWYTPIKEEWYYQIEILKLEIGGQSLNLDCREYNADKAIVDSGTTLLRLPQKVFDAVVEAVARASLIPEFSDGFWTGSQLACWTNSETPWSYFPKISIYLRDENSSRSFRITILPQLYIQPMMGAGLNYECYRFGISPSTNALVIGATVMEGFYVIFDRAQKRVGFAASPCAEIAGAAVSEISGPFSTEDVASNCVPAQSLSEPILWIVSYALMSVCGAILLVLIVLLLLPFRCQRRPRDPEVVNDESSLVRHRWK
UniProt P08183, whole entry: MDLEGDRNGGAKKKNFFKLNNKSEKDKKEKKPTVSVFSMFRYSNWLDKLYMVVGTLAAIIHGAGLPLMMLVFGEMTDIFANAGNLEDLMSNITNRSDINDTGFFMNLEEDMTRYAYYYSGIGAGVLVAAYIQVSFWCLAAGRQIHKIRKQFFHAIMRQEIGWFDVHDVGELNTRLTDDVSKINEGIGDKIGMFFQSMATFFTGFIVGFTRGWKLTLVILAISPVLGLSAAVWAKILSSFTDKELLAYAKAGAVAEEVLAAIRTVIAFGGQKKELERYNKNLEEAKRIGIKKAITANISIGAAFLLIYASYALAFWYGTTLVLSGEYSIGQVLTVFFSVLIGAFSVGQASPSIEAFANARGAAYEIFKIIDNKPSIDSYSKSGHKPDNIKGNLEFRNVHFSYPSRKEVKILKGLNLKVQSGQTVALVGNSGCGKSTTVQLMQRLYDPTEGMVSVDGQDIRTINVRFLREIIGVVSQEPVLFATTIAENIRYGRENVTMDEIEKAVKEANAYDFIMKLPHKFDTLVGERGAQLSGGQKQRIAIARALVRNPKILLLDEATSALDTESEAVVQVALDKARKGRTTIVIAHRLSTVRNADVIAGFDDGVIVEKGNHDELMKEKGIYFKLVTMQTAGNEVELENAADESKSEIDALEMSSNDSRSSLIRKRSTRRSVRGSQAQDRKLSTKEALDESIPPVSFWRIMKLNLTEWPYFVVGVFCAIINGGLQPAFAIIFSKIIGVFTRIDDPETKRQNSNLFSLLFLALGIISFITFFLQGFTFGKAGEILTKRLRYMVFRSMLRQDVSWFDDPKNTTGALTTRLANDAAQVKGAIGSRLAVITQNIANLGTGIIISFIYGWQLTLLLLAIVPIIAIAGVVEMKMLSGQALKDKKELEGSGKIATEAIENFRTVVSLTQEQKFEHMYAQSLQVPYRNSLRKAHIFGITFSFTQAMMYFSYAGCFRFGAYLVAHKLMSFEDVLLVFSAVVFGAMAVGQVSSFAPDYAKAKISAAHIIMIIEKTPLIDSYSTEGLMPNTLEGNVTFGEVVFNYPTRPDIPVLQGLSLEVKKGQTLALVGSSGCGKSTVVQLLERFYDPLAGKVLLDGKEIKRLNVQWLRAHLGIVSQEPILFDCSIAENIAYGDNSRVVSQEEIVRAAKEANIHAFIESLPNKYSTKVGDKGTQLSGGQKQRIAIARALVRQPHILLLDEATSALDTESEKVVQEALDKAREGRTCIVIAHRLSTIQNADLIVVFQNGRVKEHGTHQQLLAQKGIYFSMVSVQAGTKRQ
UniProt Q12809, whole entry: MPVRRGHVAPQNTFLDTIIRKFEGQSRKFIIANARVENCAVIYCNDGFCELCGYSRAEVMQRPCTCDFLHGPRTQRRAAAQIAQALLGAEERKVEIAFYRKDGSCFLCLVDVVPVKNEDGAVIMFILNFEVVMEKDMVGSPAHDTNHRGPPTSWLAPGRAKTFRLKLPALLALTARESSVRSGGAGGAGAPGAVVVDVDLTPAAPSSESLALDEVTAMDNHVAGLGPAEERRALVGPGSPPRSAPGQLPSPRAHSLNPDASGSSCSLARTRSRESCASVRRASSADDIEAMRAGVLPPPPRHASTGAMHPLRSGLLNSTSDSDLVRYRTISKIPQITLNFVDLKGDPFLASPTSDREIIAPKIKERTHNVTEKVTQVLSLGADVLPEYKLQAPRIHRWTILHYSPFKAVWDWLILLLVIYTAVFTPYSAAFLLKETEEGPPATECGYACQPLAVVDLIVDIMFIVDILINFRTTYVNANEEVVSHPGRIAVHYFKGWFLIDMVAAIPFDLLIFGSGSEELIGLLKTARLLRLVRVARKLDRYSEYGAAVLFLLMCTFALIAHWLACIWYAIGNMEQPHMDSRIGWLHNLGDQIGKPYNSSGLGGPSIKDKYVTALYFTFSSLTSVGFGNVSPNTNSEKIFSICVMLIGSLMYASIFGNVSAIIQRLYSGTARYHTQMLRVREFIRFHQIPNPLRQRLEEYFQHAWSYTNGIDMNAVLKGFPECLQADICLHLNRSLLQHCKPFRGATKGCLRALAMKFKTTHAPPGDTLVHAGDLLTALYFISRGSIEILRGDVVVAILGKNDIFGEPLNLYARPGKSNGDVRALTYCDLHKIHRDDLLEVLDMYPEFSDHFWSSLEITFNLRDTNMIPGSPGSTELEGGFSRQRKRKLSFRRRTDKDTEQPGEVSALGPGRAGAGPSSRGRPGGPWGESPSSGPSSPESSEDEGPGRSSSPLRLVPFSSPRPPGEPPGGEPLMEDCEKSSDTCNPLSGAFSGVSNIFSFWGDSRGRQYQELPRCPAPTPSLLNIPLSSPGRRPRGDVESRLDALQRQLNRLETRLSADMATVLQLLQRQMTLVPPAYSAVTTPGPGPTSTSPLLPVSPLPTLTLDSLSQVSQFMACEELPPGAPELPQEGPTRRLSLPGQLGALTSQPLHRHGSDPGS
UniProt P56817, 46-501 limits assumed: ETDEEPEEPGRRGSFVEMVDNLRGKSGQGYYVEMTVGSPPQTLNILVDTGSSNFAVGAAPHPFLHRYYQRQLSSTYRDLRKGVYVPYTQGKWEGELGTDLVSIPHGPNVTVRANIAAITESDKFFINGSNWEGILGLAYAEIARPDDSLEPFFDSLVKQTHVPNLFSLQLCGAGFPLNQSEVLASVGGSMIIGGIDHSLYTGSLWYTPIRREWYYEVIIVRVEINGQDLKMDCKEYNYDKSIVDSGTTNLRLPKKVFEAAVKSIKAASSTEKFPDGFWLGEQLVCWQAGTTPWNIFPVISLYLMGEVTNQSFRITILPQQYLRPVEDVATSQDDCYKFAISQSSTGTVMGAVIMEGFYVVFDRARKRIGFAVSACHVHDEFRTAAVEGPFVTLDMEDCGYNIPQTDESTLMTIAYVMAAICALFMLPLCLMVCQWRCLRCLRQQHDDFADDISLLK

The nature of one series: Metabolic stability test. As to conditions: human liver microsomes 0.5 mg protein/mL, NADPH, 37° C. The procedure: Using a commercially available pooled human liver microsomes, a compound of the present invention was reacted for a constant time, a remaining rate was calculated by comparing a reacted sample and an unreacted sample, thereby, a degree of metabolism in liver was assessed.
A reaction was performed (oxidative reaction) at 37° C. for 0 minute or 30 minutes in the presence of 1 mmol/L NADPH in 0.2 mL of a buffer (50 mmol/L Tris-HCl pH 7.4, 150 mmol/L potassium chloride, 10 mmol/L magnesium chloride) containing 0.5 mg protein/mL of human liver microsomes. After the reaction, 50 μL of the reaction solution was added to 100 μL of a methanol/acetonitrile=1/1 (v/v), mixed and centrifuged at 3000 rpm for 15 minutes. The compound of the present invention in the supernatant was quantified by LC/MS/MS or solid phase extraction (SPE)/MS, and a remaining amount of the compound of the present invention after the reaction was calculated, letting a compound amount at 0 minute reaction time to be 100%.

The target in series [1] is recombinant BACE2 protein (Homo sapiens, UniProt Q9Y5Z0). In words: BACE2 biochemical FRET based assay. Particulars: read-out: BACE2 IC50, pH 5.0, 450 min at room temperature. From the text: (§1) This assay is a Fluorescence Resonance Energy Transfer Assay (FRET) based assay. The substrate for this assay contains the ‘Swedish’ Lys-Met/Asn-Leu mutation of the amyloid precursor protein (APP) beta-secretase cleavage site. This substrate also contains two fluorophores: (7-methoxycoumarin-4-yl) acetic acid (Mca) is a fluorescent donor with excitation wavelength at 320 nm and emission at 405 nm and 2,4-dinitrophenol (Dnp) is a proprietary quencher acceptor. […] Upon cleavage by the beta-secretase, the fluorophore Mca is separated from the quenching group Dnp, restoring the full fluorescence yield of the donor. The increase in fluorescence is linearly related to the rate of proteolysis.
Briefly in a 384-well format recombinant BACE2 protein in a final concentration of 0.4 μg/mL was incubated for 450 minutes at room temperature with 10 μM substrate in incubation buffer (final concentrations: 33.3 mM Citrate buffer pH 5.0, 0.033% PEG, 2% DMSO) in the absence or presence of compound. Next the amount of proteolysis was directly measured by fluorescence measurement at T=0 and T=450 (excitation at 320 nm and emission at 405 nm). Results were expressed in RFU (Relative Fluorescence Units), as difference between T450 and T0.
(§2) A best-fit curve was fitted by a minimum sum of squares method to the plot of % Controlmin versus compound concentration. From this an IC50 value (inhibitory concentration causing 50% inhibition of activity) can be obtained.

In series [2] the target is P-gp (MDR1 expressing LLC-PK1 cells) (Homo sapiens, UniProt P08183). In words: P-gp substrate test. As to conditions: MDR1 expressing LLC-PK1 cells vs parent LLC-PK1 cells. The procedure:
1. MDR1 expressing LLC-PK1 cells and its parent cells were routinely cultured in Medium A (Medium 199 (Invitrogen) supplemented with 10% FBS (Invitrogen), gentamycin (0.05 mg/mL, Invitrogen) and hygromycin B (100 μg/mL, Invitrogen)) at 37° C. under 5% CO2/95% 02 gasses. For the transport experiments, these cells were seeded on Transwell (Registered trademark) insert (96-well, pore size: 0.4 μm, Coaster) at a density of 1.4×10^4 cells/insert and added Medium B (Medium 199 supplemented with 10% FBS and gentamycin at 0.05 mg/mL) to the feeder tray. These cells were incubated in a CO2 incubator (5% CO2/95% 02 gasses, 37° C.) and replace apical and basolateral culture medium every 48-72 hr after seeding. These cells were used between 4 and 6 days after seeding. 2. The medium in the culture insert seeded with MDR1 expressing cells or parent cells were removed by aspiration and rinsed by HBSS. The apical side (140 μL) or basolateral side (175 μL) was replaced with transport buffer containing reference substrates and the present invention and then an aliquot (50 μL) of transport buffer in the donor side was collected to estimate initial concentration of reference substrate and the present invention. After incubation for designed time at 37° C., an aliquot (50 μL) of transport buffer in the donor and receiver side were collected. Assay was performed by duplicate or triplicate. 3. Reference substrate and the present invention in the aliquot was quantified by LC/MS/MS.
Permeated amounts across monolayers of MDR1 expressing and parent cells were determined, and permeation coefficients (Pe) were calculated using Excel 2003 from the following equitation:
Pe (cm/sec)=Permeated amount (pmol)/area of cell membrane (cm^2)/initial concentration (nM)/incubation time (sec) Where, permeated amount was calculated from permeation concentration (nM, concentration of the receiver side) of the substance after incubation for the defined time (sec) multiplied by volume. (mL) and area of cell membrane was used 0.1433 (cm2). The efflux ratio was calculated using the following equation:
Efflux Ratio=Basolateral-to-Apical Pe/Apical-to-Basolateral Pe
The net flux was calculated using the following equation:
Net flux=Efflux Ratio in MDR1 expressing cells/Efflux Ratio in parent cells

The target in series [3] is human ether-a-go-go related gene (hERG) channel (Homo sapiens, UniProt Q12809). In words: hERG test (whole cell patch clamp, QPatch). As to conditions: CHO cells expressing hERG, tail peak current. From the text:
For the purpose of assessing risk of an electrocardiogram QT interval prolongation, effects on delayed rectifier K+ current (IKr), which plays an important role in the ventricular repolarization process of the compound of the present invention, was studied using CHO cells expressing human ether-a-go-go related gene (hERG) channel.
A cell was retained at a membrane potential of −80 mV by whole cell patch clamp method using an automated patch clamp system (QPatch; Sophion Bioscience A/S). After application of leak potential at −50 mV, IKr induced by depolarization pulse stimulation at +20 mV for 2 seconds and, further, repolarization pulse stimulation at −50 mV for 2 seconds was recorded.
After the generated current was stabilized, extracellular solution (NaCl: 145 mmol/L, KCl: 4 mmol/L, CaCl2:2 mmol/L MgCl2:1 mmol/L, 1 mmol/L, HEPES (4-(2-hydroxyethyl)-1-piperazineethanesulfonic acid: 10 mmol/L, glucose:10 mmol/L pH=7.4) in which the compound of the present invention have been dissolved at an objective concentration was applied to the cell under the room temperature condition for 10 minutes. From the recording IKr, an absolute value of the tail peak current was measured based on the current value at the resting membrane potential using an analysis software (QPatch assay software; Sophion Bioscience A/S). Further, the % inhibition relative to the tail peak current before application of the compound of the present invention was calculated, and compared with the vehicle-applied group (0.1% dimethyl sulfoxide solution) to assess influence of the compound of the present invention on IKr.

For series [4], the target named is recombinant BACE1 protein (Homo sapiens, UniProt P56817). Briefly: BACE1 biochemical FRET based assay. Particulars: for Selectivity: BACE2 IC50 relative to BACE1 IC50; for pIC50: read-out: BACE1 IC50, FRET, pH 5.0, 450 min at room temperature.
Excerpt: as §1, with “this assay is an APP derived 13 amino acids peptide that contains the” for “this assay contains the”, “protein (APP) beta-site secretase cleavage site.” for “protein (APP) beta-secretase cleavage site.”, “cleavage by BACE1, the fluorophore” for “cleavage by the beta-secretase, the fluorophore”
Briefly in a 384-well format recombinant BACE1 protein in a final concentration of 0.04 μg/mL was incubated for 450 minutes at room temperature with 10 μm substrate in incubation buffer (final concentrations: 33.3 mM Citrate buffer pH 5.0, 0.033% PEG, 3% DMSO) in the absence or presence of compound. Next the amount of proteolysis was directly measured by fluorescence measurement at T=0′-120′ and T=450′ (excitation at 320 nm and emission at 405 nm). Results were expressed in RFU (Relative Fluorescence Units), as difference between T450 and Tx (Tx is chosen depending on the reaction speed between 0 and 120 minutes).
as §2

The subject of series [5] is Abeta 1-42 in cerebrospinal fluid (CSF). In words: Pharmacology in the beagle dog: beta-amyloid profile in cerebrospinal fluid. As to conditions: for % Decrease in Abeta 1-42 at 24 h(a) or 25 h(b) post dosing compared to own baseline: 24 h or 25 h. The procedure: Test compounds were tested to evaluate the effect on the beta-amyloid profile in cerebrospinal fluid (CSF) of dogs after a single dose, in combination with pharmacokinetic (PK) follow up and limited safety evaluation.
In the case of compounds shown below, two or 4 beagle dogs (1 or 2 male, 1 or 2 female) were dosed with vehicle (1 mL/kg of an aqueous solution of 20% cyclodextrin) and 4 beagle dogs (2 males and 2 females) per dose group were dosed with test compound at the doses indicated in the following Table in an aqueous 20% cyclodextrin solution with a concentration in mg/mL identical to the dose given in mg/kg) on an empty stomach.
CSF was taken in conscious animals directly from the lateral ventricle via a cannula which was screwed in the skull and covered with subcutaneous tissue and skin, before and at 4, 8, 25 and 49 hours after dosing. Eight hours after dosing the animals got access to their regular meal for 30 minutes. Blood was taken for PK follow up (0.5, 1, 2, 4, 8, 25 and 49 hours) and serum samples for biochemistry were taken before and at 8 and 25 h after dosing. The CSF samples were used for measurement of Abeta 1-37, Abeta 1-38, Abeta 1-40 and Abeta 1-42.

Turning to `C[C@]1(c2cc(NC(=O)c3cnc(OCF)cn3)ccc2F)N=C(N)O[C@@H]2CO[C@@H](C(F)(F)F)[C@@H]21`, the “Remaining rate (%) at 30 min” value in “Metabolic stability test” was determined as 103%. For the same molecule, the pIC50 in series [1] was 5.70. The “P-gp ER ratio” value in series [2] is listed as 3.4. In addition, in series [3], the “hERG inhibition (%) at 3 μM” value turned out to be 32%. In series [4], the Selectivity was determined as 50.3 and the pIC50 was 7.40.

As to `C[C@]1(c2cc(NC(=O)c3cnc(OCF)cn3)ccc2F)N=C(N)O[C@@H]2CO[C@@H](C(F)(F)CF)[C@@H]21`, in series [1], the pIC50 is 6.02. In series [4], the Selectivity is 67.7 and the pIC50 is 7.85.

Regarding `CC[C@@H]1OC[C@H]2OC(N)=N[C@](CF)(c3cc(NC(=O)c4cnc(OCF)cn4)ccc3F)[C@@H]12`, the “Remaining rate (%) at 30 min” value in the series “Metabolic stability test” is on record as 78%. Also, the pIC50 was 6.51 in series [1] and 8.02 in series [4]. Besides, in series [2], the “P-gp ER ratio” value is listed as 3.4. Further, the “hERG inhibition (%) at 3 μM” value in series [3] stood at 21.9%. The Selectivity in series [4] was 32.4.

Take `C[C@@H]1OC[C@H]2OC(N)=N[C@](CF)(c3cc(NC(=O)c4cnc(OCF)cn4)ccc3F)[C@@H]12`: the “Remaining rate (%) at 30 min” value in the series “Metabolic stability test” was 86%. In series [1], the negative logarithm of the IC50 (pIC50) is 6.47. For the same molecule, in series [2], the “P-gp ER ratio” value came out at 3.8. Also, the “hERG inhibition (%) at 3 μM” value in series [3] stood at 10.4%. Further, in series [4], the Selectivity is 17.8 and the pIC50 is 7.72. For the same molecule, in series [5] (single dose 2.5 mg/kg), the “% Decrease in Abeta 1-42 at 8 h post dosing compared to own baseline” value is reported as −37% and the “% Decrease in Abeta 1-42 at 24 h(a) or 25 h(b) post dosing compared to own baseline” value was −68%. Moreover, in series [5] (single dose 2.5 mg/kg, 49 h), the “% Decrease in Abeta 1-42 at 49 h post dosing compared to own baseline” value is given as −30%.

In the case of `C[C@H]1OC[C@H]2[C@@H]1OC(N)=N[C@]2(CF)c1cc(NC(=O)c2cnc(OCF)cn2)ccc1F`, the “Remaining rate (%) at 30 min” value in the series “Metabolic stability test” was 69%. Also, the figures for the pIC50 in series [1] and in series [4] were 7.01 and 8.42, respectively. For the same molecule, the “P-gp ER ratio” value in series [2] was 3.6. In series [3], the “hERG inhibition (%) at 3 μM” value is listed as 8.4%. In addition, the Selectivity in series [4] is 25.7. The “% Decrease in Abeta 1-42 at 8 h post dosing compared to own baseline” value in series [5] (single dose 0.31 mg/kg) is −64%; in series [5] (single dose 0.63 mg/kg) it was −70%; in series [5] (single dose 1.25 mg/kg), −78%. In addition, the “% Decrease in Abeta 1-42 at 24 h(a) or 25 h(b) post dosing compared to own baseline” value was −33% in series [5] (single dose 0.31 mg/kg), −31% in series [5] (single dose 0.63 mg/kg) and −46% in series [5] (single dose 1.25 mg/kg).

For the molecule `C[C@]1(c2cc(NC(=O)c3cnc(OCF)cn3)ccc2F)N=C(N)O[C@@H]2CCOC[C@@]21F`, in series [1], the pIC50 is 6.82. In series [4], the Selectivity came out at 12.3 and the pIC50 is 7.91.

The values above are taken from patent US20210261569A1, “FUSED HETEROCYCLIC DERIVATIVES HAVING SELECTIVE BACE1 INHIBITORY ACTIVITY” (Shionogi & Co., Ltd., priority 2018, published 2021).
